Molecular target: T1, full-length B-Catenin (Uniprot ID P35222) (Homo sapiens, UniProt P35222)
T1 construct: 10 nM full-length B-Catenin (Uniprot ID P35222)
Format: binding
Conditions: competition fluorescence polarization; read-out: beta-Catenin FP IC50

Amino acid sequences for entries named in this document (tags omitted).
UniProt P35222, whole entry: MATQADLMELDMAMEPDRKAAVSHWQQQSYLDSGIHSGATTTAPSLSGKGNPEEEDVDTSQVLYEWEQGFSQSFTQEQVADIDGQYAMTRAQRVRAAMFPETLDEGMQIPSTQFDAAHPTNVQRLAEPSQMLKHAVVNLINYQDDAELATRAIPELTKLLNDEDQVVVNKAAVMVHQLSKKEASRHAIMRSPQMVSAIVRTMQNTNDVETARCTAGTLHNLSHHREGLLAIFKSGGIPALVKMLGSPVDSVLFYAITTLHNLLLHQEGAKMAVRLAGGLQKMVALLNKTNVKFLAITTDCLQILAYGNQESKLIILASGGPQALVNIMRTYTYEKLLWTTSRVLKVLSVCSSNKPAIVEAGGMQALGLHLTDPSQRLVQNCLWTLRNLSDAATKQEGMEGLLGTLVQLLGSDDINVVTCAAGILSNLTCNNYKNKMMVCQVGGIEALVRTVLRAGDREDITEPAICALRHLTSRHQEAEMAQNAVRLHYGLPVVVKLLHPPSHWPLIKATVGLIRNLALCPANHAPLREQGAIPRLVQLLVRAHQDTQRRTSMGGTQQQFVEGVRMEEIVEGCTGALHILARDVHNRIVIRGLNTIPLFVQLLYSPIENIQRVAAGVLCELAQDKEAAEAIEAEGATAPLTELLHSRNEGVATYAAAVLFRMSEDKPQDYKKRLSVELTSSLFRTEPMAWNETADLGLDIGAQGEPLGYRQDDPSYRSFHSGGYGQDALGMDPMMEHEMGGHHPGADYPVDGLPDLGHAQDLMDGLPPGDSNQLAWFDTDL

| Substance | IC50 |
| --- | --- |
| Ac-PL3-Asp-Ile-B5-Asp-3COOHF-Phe-Ala-Phe-Lys*3-PyrS2-Phe-34MeF-GlnR*3-NH2 [I-1107] | < 50 nM |
| Ac-PL3-Asp-Ile-B5-Asp-3COOHF-Phe-Ala-Phe-TriAzLys*3-PyrS2-3Thi-34ClF-sAla*3-Ala-NH2 [I-1091] | < 50 nM |
| Ac-PL3-Asp-Ile-B5-Asp-3COOHF-Phe-Ala-Phe-TriAzLys*3-PyrS2-3Thi-34ClF-sAla*3-NH2 [I-1090] | < 50 nM |
| Ac-PL3-Asp-Ile-B5-Asp-3COOHF-Phe-Ala-Phe-TriAzLys*3-PyrS2-Phe-34ClF-sAla*3-Ala-NH2 [I-1097] | < 50 nM |
| Ac-PL3-Asp-Ile-B5-Asp-3COOHF-Phe-Ala-Phe-TriAzLys*3-PyrS2-Phe-34ClF-sAla*3-NH2 [I-1096] | < 50 nM |
| Ac-PL3-Asp-Ile-B5-Asp-3COOHF-[isovaleryl]Acp-Ala-Phe-TriAzLys*3-PyrS2-Phe-34ClF-sAla*3-NH2 [I-1241] | < 50 nM |
| Ac-PL3-Asp-Ile-B5-Asp-3COOHF-nLeu-Ala-Phe-Lys*3-PyrS2-3Thi-BztA-GlnR*3-Ala-NH2 [I-973] | < 50 nM |
| Ac-PL3-Asp-Leu-B5-Asp-3COOHF-Aib-Ala-Phe-Lys*3-PyrS2-2MeF-34ClF-GlnR*3-NH2 [I-1512] | 200 to 750 nM |
| Ac-PL3-Asp-Leu-B5-Asp-3COOHF-Aib-Ala-Phe-Lys*3-PyrS2-5ClW-34ClF-GlnR*3-Ala-NH2 [I-1910] | < 50 nM |
| Ac-PL3-Asp-Leu-B5-Asp-3COOHF-Aib-Ala-Phe-Lys*3-PyrS2-5ClW-BztA-GlnR*3-Ala-NH2 [I-1915] | 750 to 1000 nM |
| Ac-PL3-Asp-Leu-B5-Asp-3COOHF-Aib-Ala-Phe-Lys*3-PyrS2-6ClW-34ClF-GlnR*3-Ala-NH2 [I-1911] | 200 to 750 nM |
| Ac-PL3-Asp-Leu-B5-Asp-3COOHF-Aib-Ala-Phe-Lys*3-PyrS2-6ClW-BztA-GlnR*3-Ala-NH2 [I-1916] | 50 to 200 nM |
| Ac-PL3-Asp-Leu-B5-Asp-3COOHF-Aib-Ala-Phe-Lys*3-PyrS2-BztA-34ClF-GlnR*3-Ala-NH2 [I-1909] | < 50 nM |
| Ac-PL3-Asp-Leu-B5-Asp-3COOHF-Aib-Ala-Phe-Lys*3-PyrS2-BztA-BztA-GlnR*3-Ala-NH2 [I-1914] | < 50 nM |
| Ac-PL3-Asp-Leu-B5-Asp-3COOHF-Aib-Ala-Phe-Lys*3-PyrS2-Phe-34ClF-GlnR*3-Ala-NH2 [I-1907] | < 50 nM |
| Ac-PL3-Asp-Leu-B5-Asp-3COOHF-Aib-Ala-Phe-Lys*3-PyrS2-Phe-BztA-GlnR*3-Ala-NH2 [I-1912] | < 50 nM |
| Ac-PL3-Asp-Leu-B5-Asp-3COOHF-Aib-Ala-Phe-Lys*3-PyrS2-Trp-34ClF-GlnR*3-Ala-NH2 [I-1908] | < 50 nM |
| Ac-PL3-Asp-Leu-B5-Asp-3COOHF-Aib-Ala-Phe-Lys*3-PyrS2-Trp-BztA-GlnR*3-Ala-NH2 [I-1913] | 50 to 200 nM |
| Ac-PL3-Asp-Leu-B5-Asp-3COOHF-Ala-Ala-Phe-Lys*3-PyrS1-Phe-34ClF-GlnR*3-NH2 [I-1700] | < 50 nM |
| Ac-PL3-Asp-Leu-B5-Asp-3COOHF-Ala-Ala-Phe-Lys*3-PyrS2-2MeF-34ClF-GlnR*3-NH2 [I-1513] | 200 to 750 nM |
| Ac-PL3-Asp-Leu-B5-Asp-3COOHF-Ala-Ala-Phe-Lys*3-PyrS2-Phe-34ClF-GlnR*3-NH2 [I-1699] | < 50 nM |
| Ac-PL3-Asp-Leu-B5-Asp-3COOHF-CyLeu-Ala-Phe-Lys*3-PyrS2-2MeF-34ClF-GlnR*3-NH2 [I-1514] | 200 to 750 nM |

| Substance | IC50 |
| --- | --- |
| Ac-PL3-Asp-Leu-B5-Asp-3COOHF-Gln3ACPip*3-Ala-Phe-Ala-PyrS2-Phe-34ClF-GlnR*3-NH2 [I-1900] | 50 to 200 nM |
| Ac-PL3-Asp-Leu-B5-Asp-3COOHF-Gln4Pippip*3-Ala-Phe-Ala-PyrS2-Phe-34ClF-GlnR*3-NH2 [I-1922] | < 50 nM |
| Ac-PL3-Asp-Leu-B5-Asp-3COOHF-Gln4Pippip*3-Ala-Phe-Leu-PyrS2-Phe-34ClF-GlnR*3-NH2 [I-1921] | < 50 nM |
| Ac-PL3-Asp-Leu-B5-Asp-3COOHF-GlnC4CyMe*3-Ala-Phe-Ala-PyrS2-Phe-34ClF-GlnR*3-NH2 [I-1897] | < 50 nM |
| Ac-PL3-Asp-Leu-B5-Asp-3COOHF-GlnC4CyMe*3-Ala-Phe-Leu-PyrS2-Phe-34ClF-GlnR*3-NH2 [I-1896] | < 50 nM |
| Ac-PL3-Asp-Leu-B5-Asp-3COOHF-GlnMeBDA*3-Ala-Phe-Ala-PyrS2-Phe-34ClF-GlnR*3-NH2 [I-1825] | < 50 nM |
| Ac-PL3-Asp-Leu-B5-Asp-3COOHF-GlnMeBDA*3-Ala-Phe-Leu-PyrS2-Phe-34ClF-GlnR*3-NH2 [I-1824] | < 50 nM |
| Ac-PL3-Asp-Leu-B5-Asp-3COOHF-GlnMeBDA*3-Ala-Phe-Val-PyrS2-Phe-34ClF-GlnR*3-NH2 [I-1826] | < 50 nM |
| Ac-PL3-Asp-Leu-B5-Asp-3COOHF-GlnPip4AE*3-Ala-Phe-Ala-PyrS2-Phe-34ClF-GlnR*3-NH2 [I-1923] | < 50 nM |
| Ac-PL3-Asp-Leu-B5-Asp-3COOHF-GlnPipAz*3-Ala-Phe-Ala-PyrS2-Phe-34ClF-GlnR*3-NH2 [I-1904] | < 50 nM |
| Ac-PL3-Asp-Leu-B5-Asp-3COOHF-GlnPipAz*3-Ala-Phe-Leu-PyrS2-Phe-34ClF-GlnR*3-NH2 [I-1903] | < 50 nM |
| Ac-PL3-Asp-Leu-B5-Asp-3COOHF-GlnR*3-Ala-Phe-Ala-PyrS2-Phe-34ClF-Gln3ACPip*3-NH2 [I-1902] | 50 to 200 nM |
| Ac-PL3-Asp-Leu-B5-Asp-3COOHF-GlnR*3-Ala-Phe-Ala-PyrS2-Phe-34ClF-Gln5DA*3-NH2 [I-1831] | < 50 nM |
| Ac-PL3-Asp-Leu-B5-Asp-3COOHF-GlnR*3-Ala-Phe-Ala-PyrS2-Phe-34ClF-Gln6DA*3-NH2 [I-1834] | < 50 nM |
| Ac-PL3-Asp-Leu-B5-Asp-3COOHF-GlnR*3-Ala-Phe-Ala-PyrS2-Phe-34ClF-GlnC4CyMe*3-NH2 [I-1899] | < 50 nM |
| Ac-PL3-Asp-Leu-B5-Asp-3COOHF-GlnR*3-Ala-Phe-Ala-PyrS2-Phe-34ClF-GlnMeBDA*3-NH2 [I-1828] | < 50 nM |
| Ac-PL3-Asp-Leu-B5-Asp-3COOHF-GlnR*3-Ala-Phe-Ala-PyrS2-Phe-34ClF-GlnPip4AE*3-NH2 [I-1926] | < 50 nM |
| Ac-PL3-Asp-Leu-B5-Asp-3COOHF-GlnR*3-Ala-Phe-Ala-PyrS2-Phe-34ClF-GlnPipAz*3-NH2 [I-1906] | < 50 nM |
| Ac-PL3-Asp-Leu-B5-Asp-3COOHF-GlnR*3-Ala-Phe-Ala-PyrS2-Phe-34ClF-GlnT4CyMe*3-NH2 [I-1839] | < 50 nM |
| Ac-PL3-Asp-Leu-B5-Asp-3COOHF-GlnR*3-Ala-Phe-Leu-PyrS2-Phe-34ClF-Gln3ACPip*3-NH2 [I-1901] | 50 to 200 nM |
| Ac-PL3-Asp-Leu-B5-Asp-3COOHF-GlnR*3-Ala-Phe-Leu-PyrS2-Phe-34ClF-Gln5DA*3-NH2 [I-1830] | < 50 nM |
| Ac-PL3-Asp-Leu-B5-Asp-3COOHF-GlnR*3-Ala-Phe-Leu-PyrS2-Phe-34ClF-Gln6DA*3-NH2 [I-1833] | < 50 nM |

| Substance | IC50 |
| --- | --- |
| Ac-PL3-Asp-Leu-B5-Asp-3COOHF-GlnR*3-Ala-Phe-Leu-PyrS2-Phe-34ClF-GlnC4CyMe*3-NH2 [I-1898] | < 50 nM |
| Ac-PL3-Asp-Leu-B5-Asp-3COOHF-GlnR*3-Ala-Phe-Leu-PyrS2-Phe-34ClF-GlnMeBDA*3-NH2 [I-1827] | < 50 nM |
| Ac-PL3-Asp-Leu-B5-Asp-3COOHF-GlnR*3-Ala-Phe-Leu-PyrS2-Phe-34ClF-GlnPip4AE*3-NH2 [I-1924] | < 50 nM |
| Ac-PL3-Asp-Leu-B5-Asp-3COOHF-GlnR*3-Ala-Phe-Leu-PyrS2-Phe-34ClF-GlnPipAz*3-NH2 [I-1905] | < 50 nM |
| Ac-PL3-Asp-Leu-B5-Asp-3COOHF-GlnR*3-Ala-Phe-Leu-PyrS2-Phe-34ClF-GlnT4CyMe*3-NH2 [I-1838] | < 50 nM |
| Ac-PL3-Asp-Leu-B5-Asp-3COOHF-GlnR*3-Ala-Phe-Val-PyrS2-Phe-34ClF-Gln5DA*3-NH2 [I-1832] | < 50 nM |
| Ac-PL3-Asp-Leu-B5-Asp-3COOHF-GlnR*3-Ala-Phe-Val-PyrS2-Phe-34ClF-Gln6DA*3-NH2 [I-1835] | < 50 nM |
| Ac-PL3-Asp-Leu-B5-Asp-3COOHF-GlnR*3-Ala-Phe-Val-PyrS2-Phe-34ClF-GlnMeBDA*3-NH2 [I-1829] | < 50 nM |
| Ac-PL3-Asp-Leu-B5-Asp-3COOHF-GlnR*3-Ala-Phe-Val-PyrS2-Phe-34ClF-GlnPip4AE*3-NH2 [I-1925] | < 50 nM |
| Ac-PL3-Asp-Leu-B5-Asp-3COOHF-GlnR*3-Ala-Phe-Val-PyrS2-Phe-34ClF-GlnT4CyMe*3-NH2 [I-1840] | 50 to 200 nM |
| Ac-PL3-Asp-Leu-B5-Asp-3COOHF-GlnT4CyMe*3-Ala-Phe-Leu-PyrS2-Phe-34ClF-GlnR*3-NH2 [I-1836] | < 50 nM |
| Ac-PL3-Asp-Leu-B5-Asp-3COOHF-GlnT4CyMe*3-Ala-Phe-Val-PyrS2-Phe-34ClF-GlnR*3-NH2 [I-1837] | 50 to 200 nM |
| Ac-PL3-Asp-Leu-B5-Asp-Asp-Ala-Ala-Phe-dLys*3-PyrS2-3Thi-BztA-GlnR*3-NH2 [I-2] | < 50 nM |
| Ac-PL3-Asp-Leu-B5-Asp-Asp-DGlnR*3-Ala-Phe-Lys*3-PyrS2-3Thi-BztA-Gln-NH2 [I-609] | < 50 nM |
| Ac-PL3-Asp-Leu-B5-Asp-Asp-dLys*3-Ala-Phe-GlnR*3-PyrS2-3Thi-BztA-Gln-NH2 [I-608] | < 50 nM |
| Ac-PL3-Asp-Npg-B5-Asp-3BOH2F-Aib-Ala-Phe-Lys*3-PyrS2-3Thi-BztA-GlnR*3-Ala-NH2 [I-1188] | 50 to 200 nM |
| Ac-PL3-Asp-Npg-B5-Asp-3COOHF-Aib-Ala-2FF-Lys*3-PyrS2-3Thi-BztA-GlnR*3-Ala-NH2 [I-581] | < 50 nM |
| Ac-PL3-Asp-Npg-B5-Asp-3COOHF-Aib-Ala-2NapA-Lys*3-PyrS2-Phe-34ClF-GlnR*3-Ala-NH2 [I-482] | < 50 nM |
| Ac-PL3-Asp-Npg-B5-Asp-3COOHF-Aib-Ala-3BrF-Lys*3-PyrS2-3Thi-BztA-GlnR*3-Ala-NH2 [I-579] | < 50 nM |
| Ac-PL3-Asp-Npg-B5-Asp-3COOHF-Aib-Ala-3CNF-Lys*3-PyrS2-3Thi-BztA-GlnR*3-Ala-NH2 [I-587] | < 50 nM |

Same assay, conditions: read-out: beta-Catenin FP IC50

| Substance | IC50 |
| --- | --- |
| Ac-PL3-Asp-Leu-B5-Asp-Asp-Ala-Ala-Phe-Lys*3-PyrS2-3Thi-BztA-GlnR*3-NH2 [I-4] | < 50 nM |

Source: US20240360179A1, “STAPLED PEPTIDES AND METHODS THEREOF” (FOG PHARMACEUTICALS, INC., priority 2021, published 2024)
